Test results published in PMC11022890 (Drug Metabolism and Disposition, 2021).

Key:
UGT2B7 [1] = molecular target: T1, UGT2B7 (Homo sapiens, UniProt P16662); settings: 100 µM; rUGT2B7 microsomes; zidovudine; screening in duplicate
T1 sequence (P16662 24-529): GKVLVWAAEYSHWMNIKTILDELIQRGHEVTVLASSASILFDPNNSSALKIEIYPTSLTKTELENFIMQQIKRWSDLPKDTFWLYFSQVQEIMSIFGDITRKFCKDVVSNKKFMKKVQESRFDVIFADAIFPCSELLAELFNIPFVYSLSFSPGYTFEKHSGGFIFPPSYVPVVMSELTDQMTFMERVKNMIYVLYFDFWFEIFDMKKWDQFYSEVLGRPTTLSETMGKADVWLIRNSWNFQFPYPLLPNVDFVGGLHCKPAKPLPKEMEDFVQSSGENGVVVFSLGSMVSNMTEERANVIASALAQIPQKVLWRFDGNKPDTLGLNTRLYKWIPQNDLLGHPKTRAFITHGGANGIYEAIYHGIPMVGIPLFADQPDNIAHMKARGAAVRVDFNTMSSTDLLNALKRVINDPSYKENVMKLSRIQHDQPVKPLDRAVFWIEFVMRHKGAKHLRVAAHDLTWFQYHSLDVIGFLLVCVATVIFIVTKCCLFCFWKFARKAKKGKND

UGT1A9 = molecular target: T2, UGT1A9 (Homo sapiens, UniProt O60656); experiment: Inhibition of propofol glucuronidation in rUGT1A9 microsomes; type: in vitro ADME
T2 sequence (O60656 26-530): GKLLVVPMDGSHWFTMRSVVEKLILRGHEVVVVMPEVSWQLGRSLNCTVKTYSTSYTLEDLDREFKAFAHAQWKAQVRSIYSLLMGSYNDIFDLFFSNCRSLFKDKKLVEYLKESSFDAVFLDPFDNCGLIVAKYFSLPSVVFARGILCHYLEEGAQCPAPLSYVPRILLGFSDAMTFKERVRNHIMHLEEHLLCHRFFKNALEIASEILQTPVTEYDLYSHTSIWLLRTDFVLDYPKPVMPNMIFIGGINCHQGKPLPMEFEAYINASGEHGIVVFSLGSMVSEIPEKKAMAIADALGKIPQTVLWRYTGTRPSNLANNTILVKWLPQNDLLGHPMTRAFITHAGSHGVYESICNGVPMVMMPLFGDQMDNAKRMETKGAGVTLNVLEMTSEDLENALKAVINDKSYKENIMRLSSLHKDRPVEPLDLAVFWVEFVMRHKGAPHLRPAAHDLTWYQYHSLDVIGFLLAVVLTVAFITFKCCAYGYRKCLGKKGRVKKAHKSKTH

[2] = tested on: UGT2B4 in human kidney microsomes; experiment: Inhibition of codeine glucuronidation
UGT2B7 [3] = molecular target: T1, UGT2B7; experiment: biochemical; settings: rUGT2B7 microsomes
[4] = molecular target: T3, UGT2B7 in human liver microsomes (Homo sapiens, UniProt P16662); experiment: Inhibition of AZT glucuronidation; settings: HLM
T3 sequence (P16662 24-529): T1 sequence (P16662 24-529)

[5] = molecular target: T4, UGT1A9 in human liver microsomes (Homo sapiens, UniProt O60656); settings: UGT1A9 substrates propofol, furosemide, acetaminophen
T4 sequence (O60656 26-530): T2 sequence (O60656 26-530)

UGT2B4 = molecular target: T5, UGT2B4 (Homo sapiens, UniProt P06133); experiment: Inhibition of codeine glucuronidation in rUGT2B4 microsomes; type: in vitro ADME
T5 sequence (P06133 24-528): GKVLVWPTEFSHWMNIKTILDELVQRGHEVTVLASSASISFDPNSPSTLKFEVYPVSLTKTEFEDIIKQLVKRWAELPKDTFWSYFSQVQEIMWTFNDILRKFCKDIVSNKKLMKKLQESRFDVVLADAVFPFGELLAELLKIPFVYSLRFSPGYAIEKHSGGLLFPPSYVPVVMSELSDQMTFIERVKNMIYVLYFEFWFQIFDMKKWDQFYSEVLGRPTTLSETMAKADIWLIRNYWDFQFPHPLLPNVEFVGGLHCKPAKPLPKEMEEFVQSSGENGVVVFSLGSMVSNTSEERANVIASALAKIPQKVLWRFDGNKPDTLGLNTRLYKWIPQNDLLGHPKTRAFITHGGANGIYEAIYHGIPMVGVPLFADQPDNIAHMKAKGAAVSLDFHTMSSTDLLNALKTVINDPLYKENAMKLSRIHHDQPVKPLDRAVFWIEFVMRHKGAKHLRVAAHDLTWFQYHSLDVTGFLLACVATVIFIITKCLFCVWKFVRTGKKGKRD

[6] = molecular target: T6, UGT2B7 in human kidney microsomes (Homo sapiens, UniProt P16662); experiment: Inhibition of AZT glucuronidation; settings: HKM
T6 sequence (P16662 24-529): T1 sequence (P16662 24-529)

[7] = IC50,u (binding-corrected IC50), probe substrate AZT

Row | SMILES | inhibition (decrease of relative activity vs control without cannabinoid) (UGT2B7 [1]) [%] | inhibition (decrease of relative activity vs control without cannabinoid) (UGT1A9; 100 µM, rUGT1A9 microsomes, propofol, screening in duplicate) [%] | IC50 of UGT1A9 relative to UGT2B7 in rUGT microsomes (lower) (UGT1A9) [fold] | codeine glucuronidation IC50 in HKMs relative to rUGT2B4 microsomes (higher) [2] | IC50 (UGT2B7 [3]; IC50, probe substrate AZT) [µM] | IC50 (UGT2B7 [3]; [7]) [µM] | IC50 ([4]; IC50, probe substrate AZT) [µM] | IC50 [4, 7] [µM] | IC50 in HLMs relative to rUGT1A9 microsomes (higher) [5] | inhibition (decrease of relative activity vs control without cannabinoid) (UGT2B4; 100 µM, rUGT2B4 microsomes, codeine, screening in duplicate) [%] | IC50 in rUGT2B4 microsomes relative to rUGT2B7 microsomes (lower) (UGT2B4; rUGT microsomes) | IC50 ([6]; IC50, probe substrate AZT) [µM] | IC50 [6, 7] [µM]
1 | C=C(C)[C@@H]1CCC(C)=C[C@H]1c1c(O)cc(CCCCC)cc1O [CBD, cannabidiol] | 96 | 98 | 6 | 5–7 fold | 21 ± 3.9 | 0.82 ± 0.15 | 30 ± 4.1 | 1.5 ± 0.21 | approximately 3 fold | 94 | approximately 3.6 fold | 35 ± 3.5 | 2.2 ± 0.22
2 | CCCCCc1cc(O)c2c(c1)OC(C)(C)c1ccc(C)cc1-2 [CBN, cannabinol] | – | – | 6 | – | 49 ± 12 | 4.2 ± 1.1 | 59 ± 8.6 | 5.5 ± 0.79 | approximately 3 fold | – | – | 57 ± 7.5 | 6.9 ± 0.9
